Measured values published in patent publication US10835542B2, “9-aminomethyl minocycline compounds and use thereof in treating community-acquired bacterial pneumonia (CABP)” (Paratek Pharmaceuticals, Inc., priority 2016, dated 2020).

How the values were obtained:
[1] = Intra-pulmonary (ELF, AC/AM by BAL) and plasma PK after multiple iv doses in healthy adult subjects; assay type: in vivo; settings: human, plasma, after the fifth 100 mg iv dose
Procedure: The purpose of the study was to determine the concentration of Compound 1 in pulmonary compartments (ELF and in pulmonary ACs, including AMs) and define time course of pulmonary distribution in comparison with the plasma pharmacokinetic (PK) profile. Compound 1 was administered intravenously to healthy subjects for 4 days (5 doses) to steady-state systemic concentrations. Subjects were grouped to have BAL at set times after the last dose of drug. Concomitant blood samples were taken to compare tissue with serum antibiotic concentrations. […]
Compound 1 concentrations in ELF and AC were measured at only 1 observation time for each subject, and data from all subjects were pooled for a PK analysis of the mean intrapulmonary concentrations. The concentration of Compound 1 in BAL fluid was normalized by the dilution factor in respect to urea levels detected in plasma and BAL.
One standard bronchoscopy was performed for each subject. Within 1 BAL timepoint group, all subjects were assessed at the same timepoint, either at 0.5, 1, 2, 4, 8, 12, and 24 hours after the last dose administration on Day 4. […]
During the bronchoscopy 4 aliquots of 50 mL each of sterile saline solution were instilled into the right lobe of the lungs, immediately aspirated, and placed on ice. The first bronchioalveolar lavage aliquot instilled (BALX) fraction was prepared and analyzed separately from subsequent instillations. […]

[2] = test system: Community-Acquired Bacterial Pneumonia (CABP); test: Phase 3 CABP study: Early Clinical Response (72-120 h after first dose); assay type: in vivo, human; settings: ITT, FIG. 2
[3] = Food effect on plasma PK of a single 300 mg oral dose, healthy volunteers (4-period crossover); assay type: in vivo, human
Procedure: Briefly, the study was a phase 1, randomized, open-label 4-period, crossover study. Before dosing on Day 1 of Period 1, subjects were randomized to one of four treatment sequences (see Table 2-1). On Day 1 of each period, subjects received a single oral dose of 300 mg Compound 1 (2×150 mg tablets) at various times after the consumption of food. There was a washout period of at least 5 days between each dosing period. A final study completion visit occurred 6 to 10 days after the last dose of Compound 1.
The high-fat (approximately 50% of total caloric content of the meal) and high-calorie (approximately 800 to 1000 calories) meal followed Food and Drug Administration guidance recommendations, and provided approximately 150, 250, and 500 to 600 calories from protein, carbohydrate, and fat, respectively (FDA Guidance, 2002). These meals were to be consumed within 20 minutes. Dose administration for Treatments B, C, and D was based off of the end time of the meal.
For statistical analysis, individual PK parameters for Compound 1 were summarized with descriptive statistics. Geometric means were determined for AUC and Cmax. PK parameters were evaluated using noncompartmental analysis using Phoenix® WinNonlin® (Pharsight Corp, St. Louis, Mo.), Version 6.2.1. Confidence intervals (CI) for test treatments (fed states: Treatments B, C, and D) compared with the reference treatment (fasted state: Treatment A) were constructed for AUC0-24, AUC0-t, AUC0-inf, and Cmax.

[4] = Phase 1 multiple oral dose study: urine PK; assay type: in vivo, human; settings: 450 mg, Day 1 (n = 3)
Procedure: Urine samples were collected from a subset of subjects at specified intervals on Day 5 of Period 2 and on Day 1 and Day 5 of Period: predose, 0 to 4, 4 to 8, 8 to 12, and 12 to 24 hours after dosing. […] Urine samples were only collected from a subset of subjects because analysis of urine PK was added by an amendment to the study protocol after the study was already underway.
Additional parameters Ae0-4, Ae4-8, Ae8-12, Ae12-24, and Ae0-24 were also calculated.

[5] = Phase 1 multiple oral dose (300, 450, 600 mg) study: plasma PK, healthy adult subjects; settings: for half-life: human, in vivo, 600 mg, mean half-life in plasma (T1/2); for Mean T1/2: plasma
[6] = test system: Community-Acquired Bacterial Pneumonia (CABP); test: Phase 3 CABP study: Investigator's Assessment of Clinical Response at PTE; assay type: in vivo, human
[7] = Day 1, treatment comparison 450/300
[8] = Day 1, treatment comparison 600/300
[9] = Day 1, treatment comparison 600/450
[10] = Day 5, treatment comparison 450/300
[11] = Day 5, treatment comparison 600/300
[12] = Day 5, treatment comparison 600/450

CN(C)c1cc(CNCC(C)(C)C)c(O)c2c1C[C@H]1C[C@H]3[C@H](N(C)C)C(O)=C(C(N)=O)C(=O)[C@@]3(O)C(O)=C1C2=O [Compound 1, 9-[(2,2-dimethyl-propylamino)-methyl]-minocycline]
clearance ([1]; read-out: clearance, mean ± SD (converted)): 134 mL/min | half-life ([1]; read-out: elimination half-life, mean ± SD (converted)): 14.7 ± 4.2 h | non-inferiority relative to moxifloxacin, early clinical response (ECR) [2]: statistical non-inferiority (10% margin) | AUC0-inf, Ratio of Geometric LS Mean ([3]; B/A): 84.7% | AUC0-t, Ratio of Geometric LS Mean ([3]; B/A): 83.3% | Cmax, Ratio of Geometric LS Mean ([3]; B/A): 84.5% | AUC0-24, Ratio of Geometric LS Mean ([3]; B/A (fed vs fasted)): 83.4% | AUC0-24, Ratio of Geometric LS Mean ([3]; C/A): 57.7% | AUC0-inf, Ratio of Geometric LS Mean ([3]; C/A): 58.4% | AUC0-t, Ratio of Geometric LS Mean ([3]; C/A): 57.7% | Cmax, Ratio of Geometric LS Mean ([3]; C/A): 60.1% | AUC0-24, Ratio of Geometric LS Mean ([3]; D/A): 37.3% | AUC0-inf, Ratio of Geometric LS Mean ([3]; D/A): 37.9% | AUC0-t, Ratio of Geometric LS Mean ([3]; D/A): 37.9% | Cmax, Ratio of Geometric LS Mean ([3]; D/A): 40.7% | Ae0-24, Mean (CV) [4]: 25.06 (16.8) mg | Fe0-24, Mean (CV) [4]: 5.57 (16.8) % | half-life (mean) ([5]; Day 1): ~13 h | AUC0-24/Dose Geometric LS Means ([5]; Day 1, 300 mg): 21.32 ng·h/mL/mg | AUC0-24/Dose Geometric LS Means ([5]; Day 1, 450 mg): 18.64 ng·h/mL/mg | AUC0-24/Dose Geometric LS Means ([5]; Day 1, 600 mg): 16.18 ng·h/mL/mg | AUC0-24/Dose Ratio of Geometric LS Means (%) [5, 7]: 87.44% | Cmax/Dose Ratio of Geometric LS Means (%) [5, 7]: 86.71% | AUC0-24/Dose Ratio of Geometric LS Means (%) [5, 8]: 75.89% | Cmax/Dose Ratio of Geometric LS Means (%) [5, 8]: 73.92% | AUC0-24/Dose Ratio of Geometric LS Means (%) [5, 9]: 86.79% | Cmax/Dose Ratio of Geometric LS Means (%) [5, 9]: 85.26% | half-life (mean) ([5]; Day 5): ~16 h | AUC0-24/Dose Geometric LS Means ([5]; Day 5, 300 mg): 30.09 ng·h/mL/mg | AUC0-24/Dose Geometric LS Means ([5]; Day 5, 450 mg): 28.83 ng·h/mL/mg | AUC0-24/Dose Geometric LS Means ([5]; Day 5, 600 mg): 26.46 ng·h/mL/mg | AUC0-24/Dose Ratio of Geometric LS Means (%) [5, 10]: 95.82% | Cmax/Dose Ratio of Geometric LS Means (%) [5, 10]: 88.58% | AUC0-24/Dose Ratio of Geometric LS Means (%) [5, 11]: 87.95% | Cmax/Dose Ratio of Geometric LS Means (%) [5, 11]: 80.36% | AUC0-24/Dose Ratio of Geometric LS Means (%) [5, 12]: 91.78% | Cmax/Dose Ratio of Geometric LS Means (%) [5, 12]: 90.72% | half-life ([5]; Day 1, range across 300, 450, 600 mg): 13 to 13.7 h | half-life ([5]; Day 5, range across 300, 450, 600 mg): 15.5 to 16.8 h | Mean T1/2 ([5]; oral 300 mg, Day 1 (n = 24)): 13.66 h | Mean T1/2 ([5]; oral 300 mg, Day 5 (n = 21)): 15.49 h | Mean T1/2 ([5]; oral 450 mg, Day 1 (n = 23)): 13.45 h | Mean T1/2 ([5]; oral 450 mg, Day 5 (n = 23)): 16.83 h | Mean T1/2 ([5]; oral 600 mg, Day 1 (n = 23)): 13.03 h | Mean T1/2 ([5]; oral 600 mg, Day 5 (n = 21)): 16.75 h | non-inferiority relative to moxifloxacin, clinical success at the PTE ([6]; ITT and CE-PTE limited to PORT Risk Class III/IV, FIG. 3): statistical non-inferiority (10% margin) | non-inferiority relative to moxifloxacin, clinical success at the PTE ([6]; ITT and CE-PTE, FIG. 2): statistical non-inferiority (10% margin) | Difference (95% CI) in clinical success at PTE ([6]; ITT, actual PORT Risk Class IV): 3.2 (−7.4, 13.4)^[4] %
